# Measured values taken from PubChem BioAssay AID1645870 (National Center for Advancing Translational Sciences (NCATS), 2021).
# The chains behind the UniProt entries cited, without tags or fusion partners. Where a name states a change or a piece, a line headed by the entry shows the natural chain unless it says otherwise.
# UniProt Q9BV86: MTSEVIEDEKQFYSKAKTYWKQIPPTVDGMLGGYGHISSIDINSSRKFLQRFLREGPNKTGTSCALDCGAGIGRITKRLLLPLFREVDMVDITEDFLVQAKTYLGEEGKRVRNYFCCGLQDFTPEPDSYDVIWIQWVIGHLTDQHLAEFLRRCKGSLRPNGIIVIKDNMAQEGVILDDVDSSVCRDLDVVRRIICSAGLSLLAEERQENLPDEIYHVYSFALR
# This is a selection; strong and weak results do not stand in their true shares. Records with an inconclusive call do not appear. Active and inactive are the calls of the source. The call rests on the fitted dose curve; in most records, active means well fitted inhibition curve with a large enough effect; inconclusive means small, poorly fitted or top-dose-only effect; inactive means flat fitted curve, though single readings scatter.
# Biological target: N-terminal Xaa-Pro-Lys N-methyltransferase 1 (Homo sapiens) (UniProt Q9BV86)
# Experiment: Primary qHTS for Inhibitors of N-terminal methyltransferase 1 (NTMT1): MTaseGlo Assay; further: nearly all actives have a fitted effect of over 65% in size;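 on activity change, negative = inhibition: plate controls were DMSO vehicle for no effect and no enzyme for full effect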
# Conditions: NTMT1 MTase-Glo SAH luminescence, purified enzyme; series mostly up to 57.5 µM; activity change, negative = inhibition: at the top concentration
# Text: Assay Submitter (PI): Rong Huang Ph.D.
# Purdue University, West Lafayette, IN 47907
# The N-terminal methytransferase 1 is the first methyltransferase that methylates protein alpha-N-amines and plays an important role in regulating cell mitosis, chromatin interactions and DNA repair. It is observed to be over-expressed in various cancer patient tissues like malignant melanoma and colorectal cancer tissues. Knockdown of NTMT1 in cancer cells causes cell mitotic defects and enhances sensitivity to DNA damaging chemotherapeutics. […] These critical cellular processes in which NTMT1 is implicated, coupled with emerging links to cellular dysfunction, strengthen the inference that NTMT1 is a compelling novel anticancer target. Progress have been made in understanding the molecular properties of NTMT1 and the biological consequences of protein alpha-N-terminal methylation, but there are no specific small molecule probes available for NTMT1 to fully characterize its MTase activity. To address this unmet need, a panel of assay is created and established to enable quantitative high-throughput screening (qHTS) for novel, potent, and selective small molecule NTMT1 inhibitors. Two orthogonal qHTS that use different reagents (ThioGlo vs. MTaseGlo) are developed for primary robotic screening against the NCATS chemical library of more than 400,000 small molecules. Identified inhibitors are reacquired, validated, and further characterized.
# MTaseGlo Assay is a luminescence screen that measure the activity of methyltransferases based on the reaction product S-adenosyl homocysteine (SAH). The substrate SAM is converted to SAH upon enzyme activation. MTase-Glo reagent and detection solution convert SAH to ATP and measure the light from the luciferase reaction.
# Materials: NTMT1 enzyme, substrate SPKRIA, control peptide RCC1-6 is provided by the Huang laboratory.
# SEQUENCE No. (e.g., 1, 2, 3, etc.); […] (e.g., Cells, Incubation, Reagent, etc.); VALUE; DESCRIPTION
# 1; Enzyme; 3 uL; Dispense enzyme mixture (final concentrations of 125 nM NTMT1 and 100 uM SAM) into Greiner 1536-well white / solid bottom assay plate (Greiner Bio One, Monroe, NC).
# 2; Compounds; 23 nL; Compounds and controls were transferred via a Kalypsys Pin Tool (Wako USA) equipped with a 1536-slotted pin array (Wako Automation, Richmond, VA)
# 3; Incubation; 15 min; Incubate at room temperature
# 4; Substrate; 1 uL; Dispense 1 uL of substrate at final concentration of 1 uM. Buffer solution was dispensed in control wells. The assay plate was covered with metal lids.
# 5; Incubation; 30 min; Incubate at room temperature, protected from lights.
# 6; Reagent; 1 uL; Dispensed 5x MTase-Glo detection reagent (R) into the assay plate. The plate was covered with metal lids.
# 7; Incubation; 30 min; Incubate the assay plates at room temperature in the dark to allow for SAH to be converted to ADP.
# 8; Reagent; 5 uL; Dispense 5 uL of 1x MTase-Glo Detection Solution (R) to allow for ADP to be converted to ATP which was then detected with a luciferase reaction.
# 9; Centrifuge; 15 sec; Centrifuge the assay plate for 15 seconds at 1000 RPM.
# 10; Incubation; 30 min; Assay plates were incubation at room temperature in the dark.
# 11; Detection; Luminescence; Plates were read on ViewLux detector (PerkinElmer). Data were normalized to no-enzyme (0% activity) and no-inhibitor (DMSO; 100%) controls, and the resulting percent inhibition data were fitted to a 4-parameter Hill equation using GraphPad Prism.
# Potency means the concentration at half of the fitted maximal effect.
SMILES,"activity change, negative = inhibition",Potency
CN(C(=O)Cc1ccc(Cl)c(Cl)c1)[C@H]1CCCC[C@H]1N1CCCC1,inactive: 0.882%,
CCNC(C)Cc1ccc2c(c1)OCO2 (centres undefined),inactive: -23.2% [at 114 µM],
N[C@@H](Cc1ccc([N+]([O-])(CCCl)CCCl)cc1)C(=O)O,,active: 79.4 µM
CN(C(=O)Cc1ccccc1)[C@H]1CC[C@@]2(CCCO2)C[C@@H]1N1CCCC1,inactive: -5.97%,
CN(C)C1(c2ccccc2)CCC2(CC1)OCCc1c2[nH]c2ccc(F)cc12 (centres undefined),inactive: 2.93%,
CCn1c(=O)n([C@@H]2CCN(CC3CCCCCCC3)C[C@H]2CO)c2ccccc21,inactive: 0.947%,
NC(=O)Nc1ccc([As](=O)(O)O)cc1,inactive: -0.366%,
CN(C(=O)Cc1ccc(Cl)c(Cl)c1)[C@H]1CC[C@@]2(CCCO2)C[C@@H]1N1CCCC1,inactive: 24.4%,
CCn1c(=O)n([C@@H]2CCN(CC3CCCCCCC3)C[C@@H]2CO)c2ccccc21,inactive: 3.39%,
